The conditions of this series: pH 7.4.
In the case of “poly[(glycine ethyl ester)(aminomethoxy polyethylene glycol 550)(glycinephenylalanineleucine)phosphazene] [Example 10]”, the Max. gelling temp. stood at 33 °C.
For the substance “poly[(glycine ethyl ester)(aminomethoxy polyethyleneglycol 550)(glycinephenylalanineleucineglycine)phosphazene] [Example 11]”, the Max. gelling temp. came out at 42 °C.
In the case of “poly[(isoleucine ethyl ester)(aminomethoxy polyethylene glycol 350)(glycine)phosphazene] [Example 5]” it was 37 °C; in that of “poly[(isoleucine ethyl ester)(aminomethoxy polyethylene glycol 550)(aminoethylsuccinate)(aminoethylsuccinate PEI)phosphazene] [Example 19]”, 36 °C; in that of “poly[(isoleucine ethyl ester)(aminomethoxy polyethylene glycol 550)(aminoethylsuccinate)(aminoethylsuccinate ethylene heparin)phosphazene] [Example 21]”, 39 °C.
As for “poly[(isoleucine ethyl ester)(aminomethoxy polyethylene glycol 550)(aminoethylsuccinate)(aminoethylsuccinate protamine)phosphazene] [Example 20]”, the Max. gelling temp. came out at 38 °C.
With “poly[(isoleucine ethyl ester)(aminomethoxy polyethylene glycol 550)(glycylglycine)(glycyl glycyl polyethylenimine)phosphazene] [Example 13]”, the Max. gelling temp. was found to be 39 °C.
Consider “poly[(isoleucine ethyl ester)(aminomethoxy polyethylene glycol 550)(glycylglycine)(glycyl glycyl protamine)phosphazene] [Example 14]”, for which the Max. gelling temp. came to 46 °C.
“poly[(isoleucine ethyl ester)(aminomethoxy polyethylene glycol 550)(glycylglycine)(glycylglycyl ethylene heparin)phosphazene] [Example 16]” returned a Max. gelling temp. of 38 °C.
The substance “poly[(isoleucine ethyl ester)(aminomethoxy polyethylene glycol 550)(glycylglycine)(glycylglycyl ethylene hyaluronic acid)phosphazene] [Example 17]” displayed a Max. gelling temp. of 40 °C.
The substance “poly[(isoleucine ethyl ester)(aminomethoxy polyethylene glycol 550)(glycylglycine)(glycylglycyl protamine)phosphazene] [Example 15]” showed a Max. gelling temp. of 50 °C.
In the case of “poly[(isoleucine ethyl ester)(aminomethoxy polyethylene glycol 550)(glycylglycine)phosphazene] [Example 7]” it was 27 °C.
In the case of “poly[(isoleucine ethyl ester)(ethyl-2-(O-glycyl)lactate)(aminomethoxy polyethyleneglycol 750)(glycylglycine)phosphazene] [Example 12]” it was 51 °C; in that of “poly[(phenylalanine ethyl ester)(ethyl-2-(O-glycyl)lactate)(aminomethoxy polyethyleneglycol 550)] [Example 3]”, 42 °C.

Source of the values: patent US8075916B2, “Poly(organophosphazene) hydrogels for drug delivery, preparation method thereof and use thereof” (Korea Institute of Science and Technology, priority 2007, dated 2011).
